The values below come from ChEMBL document CHEMBL4376896, “Synthesis of Novel Potent Archazolids: Pharmacology of an Emerging Class of Anticancer Drugs” (J Med Chem, 2020).

The test has as its target T1, Neutrophil elastase (Homo sapiens) (UniProt P08246).
T1 sequence (whole entry): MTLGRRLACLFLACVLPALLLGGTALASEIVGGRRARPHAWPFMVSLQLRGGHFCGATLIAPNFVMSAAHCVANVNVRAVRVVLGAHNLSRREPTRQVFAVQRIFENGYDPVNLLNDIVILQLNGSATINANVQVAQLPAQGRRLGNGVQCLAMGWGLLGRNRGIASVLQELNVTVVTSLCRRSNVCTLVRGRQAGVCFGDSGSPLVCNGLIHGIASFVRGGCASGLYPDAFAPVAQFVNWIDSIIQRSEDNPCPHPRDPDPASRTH
The experiment in a line: Inhibition of human leukocyte elastase assessed as residual enzyme activity by measuring pNA release at 2.5 uM using chromogenic MeO-Suc-Ala-Ala-Pro-Val-pNA substrate measured over 10 mins by spectrophotometry.

Bounds are passed on as bounds.

`CO/C1=C\C(C)=C\[C@@H](C)[C@@H](O)[C@@H](C)C/C(C)=C/C=C/[C@H](OC)[C@@H]([C@@H](C)[C@@H](O)[C@H](C)[C@@]2(O)C[C@@H](O)[C@H](C)[C@@H](C(C)C)O2)OC1=O` [BAFILOMYCIN A1]: the Activity was above 95%.
